# MLL AF4-AF9 inh: inhibitors of human MLL-AF4/AF9 interaction | P42568 | AlphaScreen, biotin-AF4 peptide binding to FLAG-AF9 | inhibition, % at 10 µM | 350,000 tested, 0.47% active;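 active = every replicate reaching a set inhibition limit, whatever the replicate mean, cut at about 25% in these data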;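 also: 0% = plate neutral control median and 100% = total signal loss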
# E-selectin induc: induces E-selectin expression in human endothelial cells | HUVEC E-selectin immunofluorescence imaging; normalized: neutral wells 0, TNF-alpha wells 100 | activation, % at 7.58 µM | AID 686992 | 260,000 tested, 0.37% active;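 active = mean E-selectin-positive cell signal at least 10% of the positive control, reached in at least 60% of replicates, without over 20% cell loss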
#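 Material: HUVEC primary endothelial cells; Amount: 3,000 cells per well; Dosing: single concentration; Medium: EGM-2 growth medium on 0.1% gelatin-coated wells; Read-out basis: percent E-selectin-positive cells; Signal: immunofluorescence imaging; Control set: TNF-alpha, DMSO.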
# UUG fidelity: alters start codon recognition fidelity in yeast; AID 602363; activity score, % at 18.7 µM; 350,000 tested, 0.13% active; S. cerevisiae UUG-firefly luciferase reporter, luminescence/redox ratio;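 active means replicate mean at a twofold rise or more, about +100% in these data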;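 further: firefly luciferase made from a UUG start codon reports start codon fidelity; reporter light over untreated wells divided by growth signal over untreated wells; some hits fall short of that in this replicate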
# RAD54 inh: RAD54 (human) branch migration inhibition; inhibition, % at 10.4 µM; Q92698; RAD54 Holliday junction branch migration, FAM/BHQ fluorescence; 360,000 tested, 0.14% active;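 active = mean normalized replicate activity at least 40 and at least half of replicates scoring 40 or more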;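 also: 0% = median of neutral control wells and 100% = median of positive control wells; inhibitors cause a drop in the FAM fluorescence signal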
# RAD52 anneal inh: blocks human RAD52 DNA annealing; AID 651710; P43351; recombinant RAD52 DNA annealing, FRET fluorescence; 360,000 tested, 0.46% active; inhibition, % at 18.7 µM;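 active = every replicate showing at least 50% inhibition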
# SIRT5 inh: sirtuin-5 (human) deacylase inhibition | Q9NXA8 | Purified SirT5, succinyl-peptide AMC, trypsin-coupled fluorescence | inhibition, % at 15 µM | 330,000 tested, 1.1% active; in the data active = inhibition above about 15%
# RAD52 DNA ctr: DNA binding artifact in RAD52 counter-screen; Salmon sperm DNA/acridine orange FP displacement; 1,000 tested, 8% active; AC50, µM; AID 652128; shares compounds with RAD52 anneal inh;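 active = fitted half-maximal concentration for signal loss at or below twice the highest dose tested, in every separate run, actives reach about 64 µM in these data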
# * hit, by the source's call; i = inactive; . = no result given; ! = repeats disagree. Hits are enriched below; roughly 1.8% of the tested compounds scored in any of these assays.
item	SMILES	MLL AF4-AF9 inh	E-selectin induc	UUG fidelity	RAD54 inh	RAD52 anneal inh	SIRT5 inh	RAD52 DNA ctr
1	COc1cc2c(cc1OC)CN1CCc3cc(OC)c(OC)cc3C1C2 (stereo unspecified)	0.9	.	-6.4	84.5*	73.8*	22.6*	i
2	Cc1ccc(NCCCn2cnc(C(=O)Nc3ccc(C)c(C)c3)n2)cc1C	-3.8	.	-6.8	-25.2	4.2	0.0	.
3	Cc1cc(C)c(CN2CCN(CCCn3cnc(C(=O)Nc4ccc(C)c(C)c4)n3)CC2)c(C)c1	11.2	0.0	-17.2	4.6	55.8*	-2.1	i
4	CCCC(=O)Nc1ccc2c(c1)C(=O)N(C)C[C@H](OC)[C@H](C)CN(C(=O)CC1CC1)[C@H](C)CO2	0.8	0.0	.	-3.2	-16.8	-1.3	.
5	CCN(CC)CCC(=O)Nc1cccc2c1C(=O)c1ccccc1C2=O	11.4	-0.1	-4.7	94.5*	78.5*	-1.6	9.04µM*
6	O=C(CC1CC1)N1CC(=O)N2[C@H](CO)[C@H](c3ccc(C#Cc4ccccc4)cc3)[C@@H]2C1	-2.0	-0.4	.	.	-26.6	-2.5	.
7	COc1ccc(NC(=O)Nc2ccc3c(c2)C(=O)N([C@@H](C)CO)C[C@@H](C)[C@@H](CN(C)C(=O)CCCN(C)C)OCCCC[C@H](C)O3)cc1	0.6	-0.2	12.8	11.8	24.3	-5.5	.
8	CN(C)CCCN(C(=O)/C=C/c1cccs1)c1nc2ccc(F)cc2s1	14.5	.	-17.1	21.2	58.4*	-2.3	i

# 2 records drawn at random from the list so far:
item	SMILES	MLL AF4-AF9 inh	E-selectin induc	UUG fidelity	RAD54 inh	RAD52 anneal inh	SIRT5 inh	RAD52 DNA ctr
3	Cc1cc(C)c(CN2CCN(CCCn3cnc(C(=O)Nc4ccc(C)c(C)c4)n3)CC2)c(C)c1	11.2	0.0	-17.2	4.6	55.8*	-2.1	i
5	CCN(CC)CCC(=O)Nc1cccc2c1C(=O)c1ccccc1C2=O	11.4	-0.1	-4.7	94.5*	78.5*	-1.6	9.04µM*

# Following part
item	SMILES	MLL AF4-AF9 inh	E-selectin induc	UUG fidelity	RAD54 inh	RAD52 anneal inh	SIRT5 inh	RAD52 DNA ctr
9	COc1ccc(OC)c2sc(N(CCN(C)C)C(=O)/C=C/c3cccs3)nc12	11.1	.	0.2	89.6*	101.1*	1.5	i
10	COc1ccc(C)c2sc(N(CCN(C)C)C(=O)/C=C/c3cccs3)nc12	9.7	.	-18.3	30.5	13.3	-0.8	.
11	CCN(CC)CCN(C(=O)/C=C/c1cccs1)c1nc2ccc(F)cc2s1	12.6	0.8	0.9	-0.7	-1.6	2.5	.
12	c1cc(OCCCN2CCCCC2)ccc1CN1CCCCC1	-9.3	-1.7	18.4	0.3	21.0	-5.8	i
13	CC(=O)N1CCN(c2ccc(N)cc2)CC1	-4.1	0.0	-13.2	7.0	57.9*	0.9	i
14	Nc1ccc(N2CCN(c3ccc(F)cc3)CC2)cc1	12.0	.	.	.	-9.4	0.2	.
15	Oc1ccc(C2CNCCc3c2cc(O)c(O)c3Cl)cc1 (stereo unspecified)	6.5	1.7	-9.7	-3.0	51.8*!	-2.6	i
16	CCCOc1cccc(C(=O)NC(=S)Nc2ccc(N3CCN(C)CC3)cc2)c1	11.9	7.1	.	.	66.1*	-2.4	i

# A few values from the list.
# In RAD52 anneal inh, compound 13 reads 57.9*
# In RAD52 anneal inh, compound 16 reads 66.1*
# In UUG fidelity, compound 10 reads -18.3

# (continued)
# Labels used below: A = MLL AF4-AF9 inh; B = E-selectin induc; C = UUG fidelity; D = RAD54 inh; E = RAD52 anneal inh; F = SIRT5 inh; G = RAD52 DNA ctr
17. COc1ccc(NC(=O)Nc2ccc3c(c2)C(=O)N([C@H](C)CO)C[C@@H](C)[C@@H](CN(C)Cc2ccc4c(c2)OCO4)OCCCC[C@H](C)O3)cc1
  A: 10.8; B: 0.1; C: 27.3; D: -3.6; E: 58.6*!; F: 3.1; G: i
18. CCS(=O)(=O)NCC[C@H]1CC[C@@H](NC(=O)C2CCC2)[C@H](CO)O1
  A: -1.8; B: 0.3; C: 2.6; D: 0.9; E: -13.1; F: 7.5; G: .
19. CN(C)C(=O)C[C@@H]1C[C@@H]2c3cc(NC(=O)Nc4ccccc4F)ccc3O[C@@H]2[C@H](CO)O1
  A: -1.4; B: -0.3; C: -11.2; D: -10.1; E: -18.3; F: -2.1; G: .
20. Cc1c(C(=O)Nc2ccc(S(=O)(=O)N(C)C3CCN(C)CC3)cc2)oc2c(Cl)cccc12
  A: 15.5; B: .; C: -5.4; D: 8.6; E: 69.5*; F: -2.0; G: i
21. COc1cccc(NC(=O)CSc2nc3c(sc4ccccc43)c(=O)n2CCN(C)C)c1
  A: 0.5; B: .; C: .; D: .; E: 73.9*; F: -8.5; G: i
22. CCc1cc(C(=O)Nc2cc(S(=O)(=O)N(CC)CC)ccc2N2CCN(C)CC2)sc1C
  A: -3.8; B: 0.8; C: 4.9; D: -1.0; E: 89.3*; F: -4.3; G: i
23. COc1ccc(OC)c(N/C(N)=N/c2nc(C)cc(C)n2)c1
  A: 4.8; B: 0.0; C: -11.2; D: -3.9; E: 50.0*; F: -0.9; G: i
24. COc1ccc(C)cc1N/C(N)=N/c1nc(C)cc(C)n1
  A: -2.7; B: .; C: .; D: .; E: 17.7; F: 0.8; G: .
25. Oc1ccc(/C=N/Nc2cc(N3CCCC3)nc(N3CCCC3)n2)cc1
  A: .; B: .; C: -5.1; D: 4.3; E: .; F: .; G: .
26. COc1ccc(/C=N/Nc2cc(N3CCCC3)nc(N3CCCC3)n2)cc1
  A: 12.0; B: 0.8; C: 13.0; D: 7.4; E: 73.0*; F: -1.7; G: i
27. CN1c2ccc(-c3ccccc3F)cc2[C@@H]2[C@@H](CCN2C(=O)NC2CCCC2)[C@@H]1CO
  A: .; B: -0.4; C: -15.4; D: -1.8; E: .; F: .; G: .
